Data reported in patent US20260384438A1, “PYRROLOPYRIMIDINE CARBOXAMIDES” (published 2026).

Chains of the proteins cited; added tags and fusions are not shown. Residues count along the entry.
UniProt P30291, whole entry: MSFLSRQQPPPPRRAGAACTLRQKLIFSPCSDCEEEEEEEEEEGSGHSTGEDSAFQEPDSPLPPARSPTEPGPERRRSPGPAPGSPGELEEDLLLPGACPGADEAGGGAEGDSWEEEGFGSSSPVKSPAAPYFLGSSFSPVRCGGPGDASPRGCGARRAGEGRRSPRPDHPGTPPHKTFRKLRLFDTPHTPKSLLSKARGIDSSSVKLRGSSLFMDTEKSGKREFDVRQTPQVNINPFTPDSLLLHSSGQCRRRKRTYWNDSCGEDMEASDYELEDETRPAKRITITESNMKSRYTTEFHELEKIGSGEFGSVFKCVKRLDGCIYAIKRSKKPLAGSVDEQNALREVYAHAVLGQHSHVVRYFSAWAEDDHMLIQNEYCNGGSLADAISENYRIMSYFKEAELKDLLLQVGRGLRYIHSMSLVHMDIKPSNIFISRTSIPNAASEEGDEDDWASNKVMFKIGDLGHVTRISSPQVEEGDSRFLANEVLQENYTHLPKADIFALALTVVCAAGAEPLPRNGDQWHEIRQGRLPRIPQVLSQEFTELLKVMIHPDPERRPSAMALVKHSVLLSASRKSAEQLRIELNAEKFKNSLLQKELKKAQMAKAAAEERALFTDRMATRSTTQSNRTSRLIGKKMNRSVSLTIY
UniProt Q99640, whole entry: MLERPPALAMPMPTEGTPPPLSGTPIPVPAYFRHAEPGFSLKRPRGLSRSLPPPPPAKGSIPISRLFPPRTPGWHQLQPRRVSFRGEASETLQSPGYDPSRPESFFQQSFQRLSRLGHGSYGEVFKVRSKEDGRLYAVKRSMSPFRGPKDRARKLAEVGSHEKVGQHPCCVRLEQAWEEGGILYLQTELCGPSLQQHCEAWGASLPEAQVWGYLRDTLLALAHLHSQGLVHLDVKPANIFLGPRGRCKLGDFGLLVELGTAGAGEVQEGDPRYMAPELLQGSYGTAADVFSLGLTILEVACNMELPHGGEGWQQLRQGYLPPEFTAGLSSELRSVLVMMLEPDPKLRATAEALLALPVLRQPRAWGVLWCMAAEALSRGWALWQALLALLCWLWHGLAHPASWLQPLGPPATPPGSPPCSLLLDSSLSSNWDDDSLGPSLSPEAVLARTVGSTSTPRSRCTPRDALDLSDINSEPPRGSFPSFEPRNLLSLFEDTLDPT
UniProt P54753, 34-998 limits assumed: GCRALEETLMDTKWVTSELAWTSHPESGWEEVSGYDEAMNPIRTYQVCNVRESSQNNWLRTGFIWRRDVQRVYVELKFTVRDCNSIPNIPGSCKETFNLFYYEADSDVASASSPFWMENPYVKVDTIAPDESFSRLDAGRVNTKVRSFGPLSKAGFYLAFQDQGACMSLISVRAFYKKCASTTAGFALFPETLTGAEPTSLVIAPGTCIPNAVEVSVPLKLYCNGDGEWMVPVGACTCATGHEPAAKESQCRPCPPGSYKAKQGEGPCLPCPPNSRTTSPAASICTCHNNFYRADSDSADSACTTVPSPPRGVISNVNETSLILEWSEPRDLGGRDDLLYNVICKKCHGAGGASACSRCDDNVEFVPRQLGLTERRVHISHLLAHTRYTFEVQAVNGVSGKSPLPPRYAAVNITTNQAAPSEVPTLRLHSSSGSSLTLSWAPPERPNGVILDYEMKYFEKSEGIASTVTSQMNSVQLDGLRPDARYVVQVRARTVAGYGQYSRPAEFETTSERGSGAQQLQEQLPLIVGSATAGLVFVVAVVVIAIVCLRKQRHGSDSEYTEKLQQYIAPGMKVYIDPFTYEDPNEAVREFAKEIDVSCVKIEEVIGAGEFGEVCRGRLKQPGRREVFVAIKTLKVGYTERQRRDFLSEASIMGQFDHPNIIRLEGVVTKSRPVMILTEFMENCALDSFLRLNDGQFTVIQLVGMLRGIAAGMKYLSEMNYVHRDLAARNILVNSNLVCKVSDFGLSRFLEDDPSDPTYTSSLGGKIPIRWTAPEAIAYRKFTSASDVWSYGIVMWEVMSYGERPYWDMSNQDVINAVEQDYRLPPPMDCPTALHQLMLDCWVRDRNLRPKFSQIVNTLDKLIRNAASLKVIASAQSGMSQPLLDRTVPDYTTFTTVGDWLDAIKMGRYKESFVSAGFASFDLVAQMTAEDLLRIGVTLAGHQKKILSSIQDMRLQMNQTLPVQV

Key:
[1] = Metabolic stability in human liver microsomes (HLM); conditions: human liver microsomes 1 mg/mL, 1 μM
[2] = target: WEE1 (Homo sapiens, UniProt P30291); experiment: NanoBRET target engagement in HEK293T cells, WEE1; conditions: read-out: WEE1 INHIBITION IC50, 2 h
[3] = target: PKMYT1 (Homo sapiens, UniProt Q99640); experiment: NanoBRET target engagement in HEK293T cells, PKMYT1; conditions: read-out: PKMYT1 INHIBITION IC50, 2 h
[4] = target: EPHB3 (Homo sapiens, UniProt P54753); experiment: NanoBRET target engagement in HEK293T cells, EPHB3; conditions: read-out: EPHB3 INHIBITION IC50, 2 h
[5] = target: CDK1 pThr14 (PKMYT1 substrate), FUOV-1 cells (Homo sapiens, UniProt Q99640); experiment: Functional CDK1 pThr14 AlphaLISA assay in FUOV-1 cells; conditions: read-out: pCDk1(Thr14) INHIBITION IC50, 2 h
[6] = tested on: SKOV3 cells; experiment: Cellular proliferation (Hoechst staining), SKOV3; conditions: read-out: SKOV3 GI50; CCNE1-nonamplified, 4 days
[7] = tested on: OVCAR3 cells; experiment: Cellular proliferation (Hoechst staining), OVCAR3; conditions: read-out: OVCAR3 GI50; CCNE1-amplified, 4 days
[8] = Log D octanol/PBS pH 7.4; conditions: octanol/PBS pH 7.4, 1 μM
[9] = Aqueous (thermodynamic) solubility, pH 7.4; conditions: 0.1 M phosphate buffer pH 7.4, 24 h, 25 °C

Row | SMILES | HLM (CLint) [1] [µL/min/mg] | IC50 [2] [nM] | IC50 [3] [nM] | IC50 [4] [nM] | IC50 [5] [nM] | GI50 [6] [nM] | GI50 [7] [nM] | LogD [8] | Solubility pH 7.4 [9] [μM]
1 | Cc1cc2c(nn1)c(C(N)=O)c(N)n2-c1c(C)ccc(O)c1C (single isomer, unassigned) [53, Isomer 2] | 9.700 | > 9970 | 80 | 677 | 2860 |  |  |  | 
2 | Cc1cc2c(cn1)c(C(N)=O)c(N)n2-c1c(C)ccc(O)c1C (single isomer, unassigned) [52, Isomer 2] | <3.000 | > 10000 | 369 | 7290 | > 9910 | > 30000 | > 30000 |  | 
3 | CCOc1ncc2c(C(N)=O)c(N)n(-c3c(C)ccc(O)c3C)c2n1 (single isomer, unassigned) [83, Isomer 1] | 8.880 | > 9970 | 2170 | > 9970 | > 9910 |  |  |  | 
4 | Cc1ncc2c(C(N)=O)c(N)n(-c3c(C)ccc(O)c3Cl)c2n1 (racemic) |  | > 9970 | 23 | 2420 | 234 | 18200 | 1460 |  | 
5 | Cc1ccc(O)c(C)c1-n1c(N)c(C(N)=O)c2cnc(C(C)C)nc21 (single isomer, unassigned) [48, Isomer 1] | 74.193 | > 10000 | 12 | 470 | 185 | 15400 | 6980 |  | 
6 | CNc1ncc2c(C(N)=O)c(N)n(-c3c(C)ccc(O)c3C)c2n1 (single isomer, unassigned) [92, Isomer 1] | 7.183 | > 9970 | 18 | 191 | 127 |  |  |  | 
7 | Cc1ccc(O)c(C)c1-n1c(N)c(C(N)=O)c2cnc(N3CCCC3)nc21 (single isomer, unassigned) [74, Isomer 2] | 73.837 | > 9970 | 5220 | > 9970 | > 9910 |  |  |  | 
8 | CCn1cc2c(C(N)=O)c(N)n(-c3c(C)ccc(O)c3C)c2nc1=O (single isomer, unassigned) [79, Isomer 2] | <3.000 | > 9970 | > 9970 | > 9970 | > 9910 | > 30000 | > 30000 |  | 
9 | Cc1ncc2c(C(N)=O)c(N)n(-c3c(Cl)ccc(O)c3Cl)c2n1 (single isomer, unassigned) [85, Isomer 2] | <3.000 | > 9970 | 2380 | > 9970 | 9770 |  |  |  | 
10 | COc1nc(C)nc2c1c(C(N)=O)c(N)n2-c1c(C)ccc(O)c1C (racemic) | 16.200 | > 9970 | 8 | 168 | 72 |  |  | 2.2 | 
11 | Cc1ccc(O)c(C)c1-n1c(N)c(C(N)=O)c2cnc(C3CC3)nc21 (single isomer, unassigned) [50, Isomer 2] | 16.252 | > 9970 | 3880 | > 9970 | > 9910 | > 30000 | > 30000 |  | 
12 | Cc1ccc(O)c(C)c1-n1c(N)c(C(N)=O)c2cnc(Br)nc21 (racemic) | 8.140 | > 9970 | 18 | 1760 | 347 |  |  | 1.9 | 150
13 | Cc1ccc(O)c(C)c1-n1c(N)c(C(N)=O)c2cnc(C(F)(F)F)nc21 (single isomer, unassigned) [62, Isomer 2] | 33.100 | > 9970 | 14 | 1010 | 421 | > 30000 | 14200 |  | 
14 | Cc1ccc(O)c(C)c1-n1c(N)c(C(N)=O)c2cnc(C(F)(F)F)nc21 (single isomer, unassigned) [62, Isomer 1] | 23.800 | > 9970 | > 9970 | > 9970 | > 9910 | > 30000 | 29300 |  | 
15 | Cc1ccc(O)c(C)c1-n1c(N)c(C(N)=O)c2cnc(N3CCC3)nc21 (single isomer, unassigned) [75, Isomer 1] | 13.871 | > 9970 | 18 | 117 | 352 |  |  |  | 
16 | CNc1ncc2c(C(N)=O)c(N)n(-c3c(C)ccc(O)c3C)c2n1 (single isomer, unassigned) [92, Isomer 2] | <3.000 | > 9970 | 3060 | > 9970 | > 9910 |  |  |  | 

Row | SMILES | HLM (CLint) [1] [µL/min/mg] | IC50 [2] [nM] | IC50 [3] [nM] | IC50 [4] [nM] | IC50 [5] [nM] | GI50 [6] [nM] | GI50 [7] [nM] | LogD [8] | Solubility pH 7.4 [9] [μM]
17 | CC#Cc1ncc2c(C(N)=O)c(N)n(-c3c(C)ccc(O)c3C)c2n1 (single isomer, unassigned) [93, Isomer 2] | 5.751 | > 9970 | 19 | 1490 | 150 |  |  |  | 
18 | Cc1ncc2c(C(N)=O)c(N)n(-c3c(Cl)ccc(O)c3Cl)c2n1 (single isomer, unassigned) [85, Isomer 1] | <3.000 | > 4520 | 40 | > 9650 | 260 |  |  |  | 
19 | Cc1ccc(O)c(C)c1-n1c(N)c(C(N)=O)c2cnc(N3CC(F)(F)C3)nc21 (racemic) | 41.253 | > 9970 | 19 | 443 | 241 |  |  | 2.29 | 125
20 | Cc1cc2c(nn1)c(C(N)=O)c(N)n2-c1c(C)ccc(O)c1C (single isomer, unassigned) [53, Isomer 1] | 6.800 | > 9970 | > 9970 | > 9970 | > 9910 |  |  |  | 
21 | Cc1ccc(O)c(C)c1-n1c(N)c(C(N)=O)c2cnc(N3CC(C)(C)C3)nc21 (single isomer, unassigned) [135, Isomer 1] | 42.040 | > 9970 | 10 | 233 | 181 |  |  |  | 
22 | Cc1ccc(O)c(C)c1-n1c(N)c(C(N)=O)c2cnc(N3CCC(F)(F)C3)nc21 (single isomer, unassigned) [10, Isomer 2] | 46.045 | > 9970 | 869 | > 9970 | > 9910 |  |  |  | 
23 | Cc1ccc(O)c(C)c1-n1c(N)c(C(N)=O)c2cnc(N3CCC3)nc21 (single isomer, unassigned) [75, Isomer 2] | 10.395 | > 9970 | 8220 | > 9970 | > 9910 |  |  |  | 
24 | CC#Cc1ncc2c(C(N)=O)c(N)n(-c3c(C)ccc(O)c3C)c2n1 (single isomer, unassigned) [93, Isomer 1] | 12.494 | > 3160 | 7120 | > 9970 | > 9910 |  |  |  | 
25 | Cc1ccc(O)c(C)c1-n1c(N)c(C(N)=O)c2cnc(N3CCC(F)(F)C3)nc21 (single isomer, unassigned) [10, Isomer 1] | 49.624 | 5410 | 7 | 36 | 105 |  |  |  | 
26 | Cc1ncc2c(C(N)=O)c(N)n(-c3c(Cl)ccc(O)c3C)c2n1 (single isomer, unassigned) [73, Isomer 2] |  | > 9970 | 1070 | > 9970 | 6010 |  |  |  | 
27 | Cc1ccc(O)c(C)c1-n1c(N)c(C(N)=O)c2cnc(N3CC(C)(C)C3)nc21 (single isomer, unassigned) [135, Isomer 2] | 42.608 | > 9970 | 1930 | > 9970 | > 9910 |  |  |  | 
28 | Cc1ccc(O)c(C)c1-n1c(N)c(C(N)=O)c2cnc(C3CCC3)nc21 (single isomer, unassigned) [71, Isomer 1] | 145.851 | > 9970 | 4 | 180 | 72 |  |  |  | 
29 | Cc1ccc(O)c(C)c1-n1c(N)c(C(N)=O)c2cnc(N3CCC(F)(F)C3)nc21 (racemic) | 52.407 | > 9970 | 9 | 91 | 244 |  |  | 2.78 | 5
30 | CCOc1ncc2c(C(N)=O)c(N)n(-c3c(C)ccc(O)c3C)c2n1 (single isomer, unassigned) [83, Isomer 2] | 22.200 | > 9970 | 12 | 294 | 158 |  |  |  | 
31 | Cc1ccc(O)c(C)c1-n1c(N)c(C(N)=O)c2cnc(C3CCC3)nc21 (single isomer, unassigned) [71, Isomer 2] | 70.948 | > 9970 | 1190 | > 9970 | 9480 |  |  |  | 
32 | Cc1ccc(O)c(C)c1-n1c(N)c(C(N)=O)c2cnc(N3CCCC3)nc21 (single isomer, unassigned) [74, Isomer 1] | 53.282 | > 9970 | 6 | 26 | 139 |  |  |  | 
